One data set deals with QGY human hepatoma. The experiment in a line: Xenograft model of QGY human hepatoma inoculated subcutaneously in nude mice. Particulars: Adriamycin 2 mg/kg ip × 7 qd. A general note: Xenograft models place foreign cells or tissue in a host animal.
The test system of the next data set is A549 human lung cancer. In words: Xenograft model of A549 human lung cancer inoculated subcutaneously in nude mice. Format: in vivo, BALB/C nude mice. Particulars: Cisplatin 2 mg/kg ip × 7 qd. Here is the method:
The injection of the invention (10 g/100 ml), Cisplatin (Qilu Phamaceutical Co., Ltd), blank fat emulsion and normal saline […]

As to `COc1cccc2c1C(=O)c1c(O)c3c(c(O)c1C2=O)C[C@@](O)(C(=O)CO)C[C@@H]3O[C@H]1C[C@H](N)[C@H](O)[C@H](C)O1` [Adriamycin], in the data set with QGY human hepatoma, the “Weight of animal start” value is 21.8 g.
On to `N.N.[Cl][Pt][Cl]` [Cisplatin], for which the “Weight of animal start” value in the data set with A549 human lung cancer came out at 20.4 g.

For the origin of these results see patent publication US9585929B2 (ZHEJIANG KANGLAITE GROUP CO., LTD., priority 2014, dated 2017).
